According to US6686370B2, “Triazospiro compounds having nociceptin receptor affinity” (Euro-Celtique S.A., priority 1999, dated 2004):

Molecular target: Mu opioid receptor (Homo sapiens, UniProt P35372)
Test: [35S]GTPγS binding assay, affinity at the μ receptor
Assay type: biochemical
Conditions: read-out: calc Ki μ; mu opioid receptor membranes

In order of falling Ki:
1. O=C1NCN(c2ccccc2)C12CCN(Cc1ccco1)CC2  0.169 µM
2. CC(=O)N1CN(c2ccccc2)C2(CCN(C3CCc4ccccc4C3)CC2)C1=O (stereo not drawn)  0.038 µM
3. O=C1NCN(c2ccccc2)C12CCN(C1CCc3ccccc3C1)CC2 (stereo not drawn) [8-[1,2,3,4tetrahydronaphthyl]-1-phenyl-1,3,8-triazospiro[4.5]decan-4-one]  0.02 µM

Molecular target: kappa opioid receptor (Homo sapiens, UniProt P41145)
Test: [35S]GTPγS binding assay, affinity at the k receptor
Assay type: biochemical
Conditions: read-out: calc Ki k; kappa opioid receptor membranes

In order of falling Ki:
1. O=C1NCN(c2ccccc2)C12CCN(Cc1ccco1)CC2  0.966 µM
2. CC(=O)N1CN(c2ccccc2)C2(CCN(C3CCc4ccccc4C3)CC2)C1=O (stereo not drawn)  0.365 µM
3. O=C1NCN(c2ccccc2)C12CCN(C1CCc3ccccc3C1)CC2 (stereo not drawn) [8-[1,2,3,4tetrahydronaphthyl]-1-phenyl-1,3,8-triazospiro[4.5]decan-4-one]  0.288 µM

Molecular target: delta opioid receptor (δ2) (Homo sapiens, UniProt P41143)
Test: [35S]GTPγS binding assay, affinity at the δ receptor
Assay type: biochemical
Conditions: read-out: calc Ki δ2; delta opioid receptor membranes

`CC(=O)N1CN(c2ccccc2)C2(CCN(C3CCc4ccccc4C3)CC2)C1=O` (stereo not drawn) and `O=C1NCN(c2ccccc2)C12CCN(C1CCc3ccccc3C1)CC2` (stereo not drawn) [8-[1,2,3,4tetrahydronaphthyl]-1-phenyl-1,3,8-triazospiro[4.5]decan-4-one] are within 1.5-fold of each other in Ki: 3.49 µM for the first, 4.5 µM for the second.

For `O=C1NCN(c2ccccc2)C12CCN(Cc1ccco1)CC2`, the Ki was greater than 10 µM.

Molecular target: human opioid receptor-like receptor (ORL-1) (Homo sapiens, UniProt P41146)
Test: Functional [35S]GTPγS binding assay, nociceptin affinity at the ORL1 receptor
Conditions: not given

In order of falling Ki:
1. O=C1NCN(c2ccccc2)C12CCN(Cc1ccco1)CC2  0.778 µM
2. O=C1NCN(c2ccccc2)C12CCN(C1CCc3ccccc3C1)CC2 (stereo not drawn) [8-[1,2,3,4tetrahydronaphthyl]-1-phenyl-1,3,8-triazospiro[4.5]decan-4-one]  0.0233 µM
3. CC(=O)N1CN(c2ccccc2)C2(CCN(C3CCc4ccccc4C3)CC2)C1=O (stereo not drawn)  0.017 µM
